{"source": "patent US20240166604A1", "about": "“HYDROXYTYROSOL NICOTINAMIDE EUTECTIC CRYSTAL, AND PREPARATION METHOD THEREFOR AND COMPOSITION THEREOF” (COCRYSTAL TECHNOLOGY (JIAXING) CO., LTD., priority 2021, published 2024)", "assay": "Chemical stability at 40° C./75% RH, hydroxytyrosol content by HPLC", "type": "physicochemical", "details": "double-layer polyethylene bags, 30 d, % of initial content", "protocol": "The chemical stabilities of hydroxytyrosol, hydroxytyrosol embedding powder, co-crystal of hydroxytyrosol and nicotinamide obtained in Example 1, and the compositions obtained in Example 4 and Example 5 at 40° C./75% RH were compared.\nAn appropriate amount of powder sample was put in an accelerated stability chamber at 40° C./75% RH with the packaging condition of double-layer polyethylene bags, and the sample was taken at 0 d, 14 d, and 30 d. The content of hydroxytyrosol was determined by high performance liquid chromatography (the content was calculated by external standard method).\nThe conditions for the liquid chromatography were as follows: • Mobile phase: phase A: 0.1% aqueous trifluoroacetic acid solution, phase B: acetonitrile; flow rate: 1 mL/min; detection wavelength: 280 nm; column: C18 Plus 4.6×150 mm×5 μm; • Gradient: • 0-10 min—A:B (95:5); • 10.1-14 min—A:B (50:50); • 14.0-17 min—A:B (95:5)."}
{"substance": "co-crystal of hydroxytyrosol and nicotinamide [Example 1]", "values": [{"measurement": "content of hydroxytyrosol, Day 30", "value": 100.6, "unit": "%"}, {"measurement": "content of hydroxytyrosol, Day 30", "setting": "listed as co-crystal of hydroxytyrosol and nicotinamide", "value": "≥ 99", "unit": "%"}]}
